In test [1] the target is T1, von Hippel-Lindau disease tumor suppressor/Histone-arginine methyltransferase CARM1 (Homo sapiens) (UniProt Q86X55+P40337). Briefly: PROTAC activity at VHL/CARM1 in human MCF7 cells assessed as induction of CARM1 degradation at 0.5 uM incubated for 24 hrs by Western blot analysis. It counts as cell-based. (Immunoblotting shows a protein as a band on a membrane.)
In test [2] the test system is MDA-MB-231. Briefly: Inhibition of cell migration in human MDA-MB-231 cells at 10 uM incubated for 20 hrs by crystal violet staining based transwell migration assay. It counts as functional.
Test [3] addresses T1, von Hippel-Lindau disease tumor suppressor/Histone-arginine methyltransferase CARM1 (Homo sapiens). Briefly: PROTAC activity at VHL/CARM1 in human MCF7 cells assessed as induction of CARM1 degradation at 0.5 to 1.0 uM incubated for 24 hrs by Western blot analysis. It counts as cell-based. The settings on record: dose 0.5-1 µM.
The target is the same in test [4]. Briefly: PROTAC activity at VHL/CARM1 in ER and HER2 positive human BT-474 cells assessed as induction of CARM1 degradation at 0.5 uM incubated for 24 to 48 hrs by Western blot analysis. It counts as cell-based. The settings on record: time 24-48 hrs.
For test [5] the target is unchanged. In words: PROTAC activity at VHL/CARM1 in human MCF-10A cells assessed as induction of CARM1 degradation at 6.25 to 500 nM by Western blot analysis. It counts as cell-based. The settings on record: dose 6.25-500 nM.
Test [6] shares this target. In words: PROTAC activity at VHL/CARM1 in human MCF7 cells assessed as induction of CARM1 degradation at 0.5 uM incubated for 24 hrs in the presence of MG132 by Western blot analysis. It counts as cell-based.
Test [7] shares this target. In words: PROTAC activity at VHL/CARM1 in human MCF7 cells assessed as induction of CARM1 degradation at 0.5 uM incubated for 24 hrs in the presence of MLN4924 by Western blot analysis. It counts as cell-based.
Test [8] shares this target. In words: PROTAC activity at VHL/CARM1 in human MCF7 cells assessed as induction of CARM1 degradation at 0.5 uM incubated for 24 hrs in the presence of TP-064 by Western blot analysis. It counts as cell-based.
The subject of test [9] is MDA-MB-231. Briefly: Inhibition of cell migration in human MDA-MB-231 cells at 0.5 uM incubated for 20 hrs by crystal violet staining based transwell migration assay. It counts as functional.
For test [10], the target named is T1, von Hippel-Lindau disease tumor suppressor/Histone-arginine methyltransferase CARM1 (Homo sapiens). Briefly: PROTAC activity at VHL/CARM1 in human MCF7 cells assessed as induction of CARM1 degradation at 0.5 uM incubated for 24 hrs in the presence of VH-032 by Western blot analysis. It counts as cell-based.
For test [11], the system named is MCF7. In words: Downregulation of CARM1 protein expression in human MCF7 cells at 25 nM incubated for 4 hrs by LC-MS/MS analysis. It counts as functional, cell-based.
The target in test [12] is Protein arginine N-methyltransferase 6 (Homo sapiens) (UniProt Q96LA8). In words: Induction of PRMT6 degradation in human MCF7 cells at 0.01 to 10 uM incubated for 24 hrs by Western blot analysis. It counts as cell-based. The settings on record: dose 0.01-10 µM.
Test [13] deals with Protein arginine N-methyltransferase 5 (Homo sapiens) (UniProt O14744). In words: Induction of PRMT5 degradation in human MCF7 cells at 0.01 to 10 uM incubated for 24 hrs by Western blot analysis. The settings on record: dose 0.01-10 µM. It counts as cell-based.
Test [14] concerns MDA-MB-231. In words: Antiproliferative activity against human MDA-MB-231 cells assessed as reduction in cell viability at 0.5 uM incubated for 7 days by high contrast bright field microscopic analysis. It counts as functional, cell-based. The settings on record: time 7.0 day.
In test [15] the target is T1, von Hippel-Lindau disease tumor suppressor/Histone-arginine methyltransferase CARM1 (Homo sapiens). Briefly: PROTAC activity at VHL/CARM1 in triple negative human MDA-MB-231 cells assessed as induction of CARM1 degradation at 0.5 uM incubated for 24 to 48 hrs by Western blot analysis. It counts as cell-based. The settings on record: time 24-48 hrs.
Test [16] addresses Protein arginine N-methyltransferase 1 (Homo sapiens) (UniProt Q99873). In words: Induction of PRMT1 degradation in human MCF7 cells at 0.01 to 10 uM incubated for 24 hrs by Western blot analysis. It counts as cell-based. The settings on record: dose 0.01-10 µM.
Test [17] has as its system MCF7. In words: Downregulation of FAM129B protein expression in human MCF7 cells at 25 nM incubated for 4 hrs by LC-MS/MS analysis. It counts as functional, cell-based.
Test [18] relates to MCF7. In words: Antiproliferative activity against human MCF7 cells assessed as reduction in cell viability at 0.5 uM incubated for 7 days by high contrast bright field microscopic analysis. It counts as functional, cell-based. The settings on record: time 7.0 day.
The subject of test [19] is MCF7. In words: Effect on PRMT1 protein expression in human MCF7 cells at 25 nM incubated for 4 hrs by LC-MS/MS analysis. It counts as functional, cell-based.
In test [20] the target is T1, von Hippel-Lindau disease tumor suppressor/Histone-arginine methyltransferase CARM1 (Homo sapiens). In words: PROTAC activity at VHL/CARM1 in human MCF7 cells assessed as induction of CARM1 degradation at 0.01 to 10 uM incubated for 24 hrs by Western blot analysis. It counts as cell-based. The settings on record: dose 0.01-10 µM.
The subject of test [21] is MCF7. Briefly: Effect on PRMT5 protein expression in human MCF7 cells at 25 nM incubated for 4 hrs by LC-MS/MS analysis. It counts as functional, cell-based.
For test [22], the target named is T1, von Hippel-Lindau disease tumor suppressor/Histone-arginine methyltransferase CARM1 (Homo sapiens). Briefly: PROTAC activity at VHL/CARM1 in human MCF7 cells assessed as induction of CARM1 degradation at 0.5 uM incubated for 2 to 48 hrs by Western blot analysis. It counts as cell-based. The settings on record: time 2-48 hrs.
Test [23] shares this target. In words: PROTAC activity at VHL/CARM1 in human MCF7 cells assessed as induction of CARM1 degradation by Western blot analysis. It counts as cell-based.

The chains behind the UniProt entries cited, without tags or fusion partners. Where a name states a change or a piece, a line headed by the entry shows the natural chain unless it says otherwise.
UniProt Q86X55: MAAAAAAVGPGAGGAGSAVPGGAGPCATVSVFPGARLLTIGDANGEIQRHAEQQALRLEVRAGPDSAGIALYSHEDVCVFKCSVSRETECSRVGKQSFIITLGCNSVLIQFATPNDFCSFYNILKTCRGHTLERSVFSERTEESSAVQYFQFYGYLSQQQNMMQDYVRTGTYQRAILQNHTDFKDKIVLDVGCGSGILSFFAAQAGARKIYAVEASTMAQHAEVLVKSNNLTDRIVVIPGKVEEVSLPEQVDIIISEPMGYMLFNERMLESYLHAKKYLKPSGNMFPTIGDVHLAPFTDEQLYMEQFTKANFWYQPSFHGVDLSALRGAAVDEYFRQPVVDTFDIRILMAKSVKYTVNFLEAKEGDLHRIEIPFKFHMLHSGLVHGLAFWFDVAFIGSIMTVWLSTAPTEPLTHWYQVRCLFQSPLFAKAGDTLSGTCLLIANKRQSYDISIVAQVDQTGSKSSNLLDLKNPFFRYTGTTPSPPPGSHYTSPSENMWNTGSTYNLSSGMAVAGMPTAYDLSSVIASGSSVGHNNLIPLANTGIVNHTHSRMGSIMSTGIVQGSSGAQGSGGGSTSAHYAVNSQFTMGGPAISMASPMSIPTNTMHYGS
UniProt P40337, whole entry, looked up: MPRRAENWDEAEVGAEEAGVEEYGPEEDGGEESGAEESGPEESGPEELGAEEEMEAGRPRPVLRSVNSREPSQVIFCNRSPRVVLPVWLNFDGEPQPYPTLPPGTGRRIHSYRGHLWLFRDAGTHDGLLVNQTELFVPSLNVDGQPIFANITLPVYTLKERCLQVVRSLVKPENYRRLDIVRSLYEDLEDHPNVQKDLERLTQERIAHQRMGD
UniProt Q96LA8, whole entry, looked up: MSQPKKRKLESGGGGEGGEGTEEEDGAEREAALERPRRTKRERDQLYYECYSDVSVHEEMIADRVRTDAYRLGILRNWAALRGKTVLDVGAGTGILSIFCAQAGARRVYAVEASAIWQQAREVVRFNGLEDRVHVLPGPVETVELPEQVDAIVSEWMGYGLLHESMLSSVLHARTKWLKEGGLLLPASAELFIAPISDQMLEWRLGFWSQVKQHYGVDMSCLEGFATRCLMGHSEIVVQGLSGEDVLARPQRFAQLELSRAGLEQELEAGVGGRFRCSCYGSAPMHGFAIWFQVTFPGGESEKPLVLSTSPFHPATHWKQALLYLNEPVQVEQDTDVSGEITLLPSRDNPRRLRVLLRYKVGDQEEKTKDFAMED
UniProt O14744, whole entry: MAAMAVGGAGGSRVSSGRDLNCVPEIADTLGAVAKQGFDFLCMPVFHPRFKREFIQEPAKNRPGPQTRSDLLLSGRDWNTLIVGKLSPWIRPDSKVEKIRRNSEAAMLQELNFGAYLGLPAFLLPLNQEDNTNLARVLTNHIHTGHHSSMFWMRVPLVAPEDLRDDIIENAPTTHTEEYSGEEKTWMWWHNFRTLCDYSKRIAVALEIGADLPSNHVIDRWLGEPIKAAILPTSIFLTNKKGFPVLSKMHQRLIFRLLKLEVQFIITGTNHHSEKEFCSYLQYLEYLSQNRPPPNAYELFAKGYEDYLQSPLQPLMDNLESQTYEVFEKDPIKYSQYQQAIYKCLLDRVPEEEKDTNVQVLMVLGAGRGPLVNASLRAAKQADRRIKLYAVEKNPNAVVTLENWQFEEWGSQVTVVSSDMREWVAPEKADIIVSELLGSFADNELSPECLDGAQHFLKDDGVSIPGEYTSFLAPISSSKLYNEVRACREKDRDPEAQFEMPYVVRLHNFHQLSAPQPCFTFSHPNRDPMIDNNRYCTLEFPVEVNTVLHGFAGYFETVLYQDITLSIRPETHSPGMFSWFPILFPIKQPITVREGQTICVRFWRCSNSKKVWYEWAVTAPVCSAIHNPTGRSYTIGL
UniProt Q99873, whole entry, looked up: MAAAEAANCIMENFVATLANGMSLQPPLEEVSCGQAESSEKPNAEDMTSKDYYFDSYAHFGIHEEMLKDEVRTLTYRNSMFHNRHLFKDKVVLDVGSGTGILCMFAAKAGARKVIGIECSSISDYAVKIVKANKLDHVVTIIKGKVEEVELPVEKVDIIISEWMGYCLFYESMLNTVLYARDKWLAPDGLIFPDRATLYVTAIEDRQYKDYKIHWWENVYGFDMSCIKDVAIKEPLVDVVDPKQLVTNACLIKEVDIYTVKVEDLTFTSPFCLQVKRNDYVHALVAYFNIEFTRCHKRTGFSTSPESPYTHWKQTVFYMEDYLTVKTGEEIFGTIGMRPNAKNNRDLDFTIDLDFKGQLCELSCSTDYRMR

Molecules are shown by their SMILES. The source made the active and inactive calls. The rule behind the calls is not given here.

Take `CNCCN1CCC(c2cc(CN(C)C(=O)c3cccc(Oc4ccc(OC(=O)N5CCC(CN6CCC(CN7CCN(CC(=O)N[C@H](C(=O)N8C[C@H](O)C[C@H]8C(=O)N[C@@H](C)c8ccc(-c9scnc9C)cc8)C(C)(C)C)CC7)CC6)CC5)cc4)c3)ccn2)CC1`: the result in test [1] was inactive.

Consider `CNCCN1CCC(c2cc(CN(C)C(=O)c3cccc(Oc4ccccc4)c3)ccn2)CC1`, for which, in the test on MDA-MB-231 [2], the inhibition entry is “Active”.

Turning to `CNCCN1CCC(c2cc(CN(C)C(=O)c3cccc(Oc4ccc(OCC(=O)NCCc5ccc(OCCCCCC(=O)N[C@H](C(=O)N6C[C@H](O)C[C@H]6C(=O)N[C@@H](C)c6ccc(-c7scnc7C)cc6)C(C)(C)C)cc5)cc4)c3)ccn2)CC1`, the outcome in test [3] was Active.

As to `CNCCN1CCC(c2cc(CN(C)C(=O)c3cccc(Oc4ccc(CC(=O)N5CCC(CN6CCC(CN7CCN(CC(=O)N[C@H](C(=O)N8C[C@H](O)C[C@H]8C(=O)N[C@@H](C)c8ccc(-c9scnc9C)cc8)C(C)(C)C)CC7)CC6)CC5)cc4)c3)ccn2)CC1`, the result in [1] was inactive.

As for `CNCCN1CCC(c2cc(CN(C)C(=O)c3cccc(Oc4ccc(OCC(=O)NCCc5ccc(OCCCCCCC(=O)N[C@H](C(=O)N6C[C@H](O)C[C@H]6C(=O)N[C@@H](C)c6ccc(-c7scnc7C)cc6)C(C)(C)C)cc5)cc4)c3)ccn2)CC1`, the result in test [3] was Active.

As for `CNCCN1CCC(c2cc(CN(C)C(=O)c3cccc(Oc4ccc(OCC(=O)N5CCC(CN6CCC(CN7CCN(CC(=O)N[C@H](C(=O)N8C[C@H](O)C[C@H]8C(=O)N[C@@H](C)c8ccc(-c9scnc9C)cc8)C(C)(C)C)CC7)CC6)CC5)cc4)c3)ccn2)CC1`, the result (in test [4]; in test [5]; in the test on MCF7 [11]; in [15]; with MCF7 [17]; in [20]) was Active. Besides, the outcome in test [22] was Active. Further, the outcome in test [6], in [7], in test [8], in test [10], in test [12] and in test [13] was inactive. In addition, the result (in the test with MDA-MB-231 [14]; in test [16]; with MCF7 [18]; with MCF7 [19]; in the test with MCF7 [21]) was inactive. For the same molecule, in the test on MDA-MB-231 [9], the inhibition entry is “Active”.

Regarding `COCCN1CCC(c2cc(CN(C)C(=O)c3cccc(Oc4ccc(OCC(=O)N5CCC(CN6CCC(CN7CCN(CC(=O)N[C@H](C(=O)N8C[C@H](O)C[C@H]8C(=O)N[C@@H](C)c8ccc(-c9scnc9C)cc8)C(C)(C)C)CC7)CC6)CC5)cc4)c3)ccn2)CC1`, the result (in test [23]; in the test with MCF7 [11]) was inactive.

For the molecule `CNCCN1CCC(c2cc(CN(C)C(=O)c3cccc(Oc4ccc(CCC(=O)N5CCC(CN6CCC(CN7CCN(CC(=O)N[C@H](C(=O)N8C[C@H](O)C[C@H]8C(=O)N[C@@H](C)c8ccc(-c9scnc9C)cc8)C(C)(C)C)CC7)CC6)CC5)cc4)c3)ccn2)CC1`, the result in test [1] was Active.
